Measurements: patent US20260384421A1, “NOVEL COMPOUNDS THAT CAN BE USED AS THERAPEUTIC AGENTS” (published 2026)
Like-named read-outs stand apart in the source and are kept apart here.

Tests used:
[1] = system: MDA-MB-231 cells; test: alamarBlue proliferation assay with MDA-MB-231 cells (glucose-free Leibovitz's L-15 medium)
[2] = system: T-47D cells; test: alamarBlue proliferation assay with T-47D cells; conditions: read-out: Activity on T-47D (IC50), day 5
Description: (§1) These hyperproliferative processes can be benign or malignant and include hyperplasia, neoplasia, cancer and pre-cancerous lesions, and metastases. The antiproliferative activities of compounds falling under general formula (I) were investigated on human primary epidermal keratinocytes (HPEK) and human, murine and canine cell lines derived from hyperproliferative tissue or different cancer types, including MDA-MB-231, ZR-75-30, HCC-1395, HCC-1937, and T-47D all originating from cancer of the breast, JURKAT, RPMI-8402, LOUCY, TANQUE, REC-1, HL-60, NB-4 all originating from different types of blood cancer including lymphoma and leukemia of T-cells, B-cells and myeloid cells, TT originating from cancer of the neuroendocrine system, HeLa originating from cancer of the cervix, 23132/87, SW-948, and HCT-116 all originating from cancer of the gastrointestinal tract including stomach and colon, BHY originating from cancer of the mucosal epithelium, A-431 originating from cancer of the skin, HEP-G2 originating from cancer of the liver, NCI-H460 and A-549 both originating from cancer of the lung, PANC-1 originating from cancer of the pancreas, U-87 MG originating from cancer of the brain, A-375 and RVH-421 both originating from cancer of melanocytes, SW-1353 originating from cancer of bone-derived chondrocytes, C2C12 a mouse cell line originating from hyperproliferative muscle progenitor cells, LL/2 a mouse cell line originating from cancer of the lung, CF21.T a dog cell line originating from cancer of the connective tissue. To this end, according cells were seeded into 96-well plates (CORNING #3598) suitable for fluorescence assays at following initial cell numbers: 1000 cells per well for HPEK; 3000 cells per well for MDA-MB-231, 8000 cells per well for ZR-75-30, 1500 cells per well for HCC-1395, 1500 cells per well for HCC-1937, 3000 cells per well for T-47D, 1500 cells per well for JURKAT, 5000 cells per well for RPMI-8402, 9000 cells per well for LOUCY, 1500 cells per well for TANQUE, 9000 cells per well for REC-1, 1000 cells per well for HL-60, 1000 cells per well for NB-4, 9000 cells per well for TT, 2000 cells per well for HeLa, 2000 cells per well for 23132/87, 9000 cells per well for SW-948, 700 cells per well for HCT-116, 1500 cells per well for BHY, 700 cells per well for A-431, 1500 cells per well for HEP-G2, 500 cells per well for NCI-H460, 1000 cells per well for A-549, 1500 cells per well for PANC-1, 2500 cells per well for U-87 MG, 700 cells per well for A-375, 1500 cells per well for RVH-421, 2000 cells per well for SW-1353, 500 cells per well for C2C12, 500 cells per well for LL/2, and 3000 cells per well for CF21.T. In a volume of 90 μL per well of culture medium the cells were treated with compounds at indicated final concentrations by adding 10 μL per well of 10× compound working solutions from 1:100 pre-diluted 1000× compound DMSO stock-solutions in H2O (Water For Injection, WFI, Fisher Scientific, Gibco™ #A12873) or with the empty carrier DMSO (AppliChem, #A3672) at 0.1% v/v as control yielding a final volume of 100 μL per well. At day 5 after starting the treatments the cells were subjected to the alamarBlue® Proliferation Assay (Bio-Rad Serotec GmbH, BUF012B) according to the protocol of the manufacturer. The readout was taken with a multi-well plate-reader (Tecan Spark®) in the fluorescence mode with applying a filter for excitation at 560 nm (band width 10 nm) and for emission at 590 nm (band width 10 nm). Treatment for maximum proliferation inhibition with the commercial cytotoxic compound (S)-(+)-camptothecin (Fluorochem #M01564) at a concentration of 10 μM was included on each plate for assay quality control. Some of the test compounds of the present invention may have been obtained and applied as their salt forms.
(§2) The assays were performed in duplicate or more replicates of independent single experiments each containing a three- to six-fold replicate for every condition. […]

[3] = system: TANQUE cells; test: alamarBlue proliferation assay with TANQUE cells; conditions: read-out: Activity on TANOUE: IC50, RPMI 1640 medium, 10% FBS
[4] = system: NB-4 cells; test: alamarBlue proliferation assay with NB-4 cells; conditions: read-out: Activity on NB-4: IC50, RPMI 1640 medium, 10% FBS
[5] = system: HeLa cells; test: alamarBlue proliferation assay with HeLa cells; conditions: read-out: Activity on HeLa (IC50), day 5
Description: as §1, with “Treatment for maximum proliferation inhibition with the commercial cytotoxic compound (S)-(+)-camptothecin (Fluorochem #M01564) at a concentration of 10 μM was included on each plate for assay quality control. Some of the test compounds of the present invention may have been obtained and applied as their salt forms.” left out

[6] = system: 23132/87 cells; test: alamarBlue proliferation assay with 23132/87 cells; conditions: read-out: Activity on 23132/87: IC50, RPMI 1640 medium, 10% FBS
Description: as §1, §2

[7] = system: HCT-116 cells; test: alamarBlue proliferation assay with HCT-116 cells; conditions: read-out: Activity on HCT-116: IC50, McCoy's 5A medium, 10% FBS
[8] = system: BHY cells; test: alamarBlue proliferation assay with BHY cells; conditions: read-out: Activity on BHY: IC50, DMEM medium, 10% FBS
[9] = system: HEP-G2 cells; test: alamarBlue proliferation assay with HEP-G2 cells; conditions: read-out: Activity on HEP-G2: IC50, RPMI 1640 medium, 10% FBS
[10] = system: A-549 cells; test: alamarBlue proliferation assay with A-549 cells; conditions: read-out: Activity on A-549: IC50, DMEM medium, 10% FBS
[11] = system: LL/2 cells; test: alamarBlue proliferation assay with LL/2 cells; conditions: read-out: Activity on LL/2: IC50; LL/2 murine Lewis lung carcinoma cells, DMEM medium, 10% FBS
[12] = system: CF21.T cells; test: alamarBlue proliferation assay with CF21.T cells; conditions: read-out: Activity on CF21.T: IC50; CF21.T canine cells, DMEM medium, 10% FBS
[13] = system: ZR-75-30 cells; test: alamarBlue proliferation assay with ZR-75-30 cells; conditions: read-out: Activity on ZR-75-30 (IC50), day 5
Experimental: (§3) These hyperproliferative processes can be benign or malignant and include hyperplasia, neoplasia, cancer and pre-cancerous lesions, and metastases. […] To this end, according cells were seeded into 96-well plates (CORNING #3598) suitable for fluorescence assays at following initial cell numbers: 1000 cells per well for HPEK; 3000 cells per well for MDA-MB-231, 8000 cells per well for ZR-75-30, 1500 cells per well for HCC-1395, 1500 cells per well for HCC-1937, 3000 cells per well for T-47D, 1500 cells per well for JURKAT, 5000 cells per well for RPMI-8402, 9000 cells per well for LOUCY, 1500 cells per well for TANQUE, 9000 cells per well for REC-1, 1000 cells per well for HL-60, 1000 cells per well for NB-4, 9000 cells per well for TT, 2000 cells per well for HeLa, 2000 cells per well for 23132/87, 9000 cells per well for SW-948, 700 cells per well for HCT-116, 1500 cells per well for BHY, 700 cells per well for A-431, 1500 cells per well for HEP-G2, 500 cells per well for NCI-H460, 1000 cells per well for A-549, 1500 cells per well for PANC-1, 2500 cells per well for U-87 MG, 700 cells per well for A-375, 1500 cells per well for RVH-421, 2000 cells per well for SW-1353, 500 cells per well for C2C12, 500 cells per well for LL/2, and 3000 cells per well for CF21.T. In a volume of 90 μL per well of culture medium the cells were treated with compounds at indicated final concentrations by adding 10 μL per well of 10× compound working solutions from 1:100 pre-diluted 1000× compound DMSO stock-solutions in H2O (Water For Injection, WFI, Fisher Scientific, Gibco™ #A12873) or with the empty carrier DMSO (AppliChem, #A3672) at 0.1% v/v as control yielding a final volume of 100 μL per well. […] The readout was taken with a multi-well plate-reader (Tecan Spark®) in the fluorescence mode with applying a filter for excitation at 560 nm (band width 10 nm) and for emission at 590 nm (band width 10 nm). […]

[14] = system: HCC-1395 cells; test: alamarBlue proliferation assay with HCC-1395 cells; conditions: read-out: Activity on HCC-1395 (IC50), day 5
Description: as §1, §2

[15] = system: A-431 cells; test: alamarBlue proliferation assay with A-431 cells; conditions: read-out: Activity on A-431: IC50, DMEM medium, 10% FBS
[16] = system: HPEKp cells; test: proliferation assay with human epidermal keratinocyte progenitors (HPEKp), selectivity versus MDA-MB-231; conditions: read-out: Activity (HPEK): antiproliferative activity on HPEK cells, IC50 category; HPEK cells cultivated in CnT-Prime medium
[17] = system: JURKAT cells; test: alamarBlue proliferation assay with JURKAT cells; conditions: read-out: Activity on JURKAT (IC50), day 5
[18] = system: REC-1 cells; test: alamarBlue proliferation assay with REC-1 cells; conditions: read-out: Activity on REC-1 (IC50), day 5
Experimental: as §3

[19] = system: HL-60 cells; test: alamarBlue proliferation assay with HL-60 cells; conditions: read-out: Activity on HL-60: IC50, RPMI 1640 medium, 10% FBS
[20] = system: SW-948 cells; test: alamarBlue proliferation assay with SW-948 cells (glucose-free L-15 medium); conditions: read-out: Activity on SW-948: IC50, Leibovitz's L-15 medium, 10% FBS, 0% CO2
[21] = system: NCI-H460 cells; test: alamarBlue proliferation assay with NCI-H460 cells; conditions: read-out: Activity on NCI-H460: IC50, RPMI 1640 medium, 10% FBS
[22] = system: U-87 MG cells; test: alamarBlue proliferation assay with U-87 MG cells; conditions: read-out: Activity on U-87MG: IC50, EMEM medium, 10% FBS
[23] = system: A-375 cells; test: alamarBlue proliferation assay with A-375 cells; conditions: read-out: Activity on A-375: IC50, DMEM medium, 10% FBS
[24] = system: RVH-421 cells; test: alamarBlue proliferation assay with RVH-421 cells (glucose-free L-15 medium); conditions: read-out: Activity on RVH-421: IC50, Leibovitz's L-15 medium, 10% FBS, 0% CO2
[25] = system: SW-1353 cells; test: alamarBlue proliferation assay with SW-1353 cells (glucose-free L-15 medium); conditions: read-out: Activity on SW-1353: IC50, Leibovitz's L-15 medium, 10% FBS, 0% CO2
[26] = read-out: Activity on MDA-MB-231 (IC50), glucose-free Leibovitz's L-15, 10% FBS, day 5, alamarBlue

SMILES | IC50 [1, 26] [µM] | IC50 [2] [µM] | IC50 [5] [µM] | IC50 [7] [µM] | IC50 [9] [µM] | IC50 [10] [µM] | IC50 [14] [µM] | IC50 [15] [µM] | IC50 [3] [µM] | IC50 [4] [µM] | IC50 [6] [µM] | IC50 [8] [µM] | IC50 [11] [µM] | IC50 [12] [µM] | IC50 [13] [µM] | other results
CCCCN1CCN(C(=O)c2ccc(Oc3ccc(C4CCC5(CC4)OCCO5)cc3C=O)cc2)CC1 | ≤ 5 |  |  |  | ≤ 5 |  | ≤ 5 | ≤ 5 |  |  |  |  |  |  | ≤ 5 | 
COC1CCC(c2ccc(Oc3ccc(C(=O)N4CCN(Cc5ccc(Cl)nc5)CC4)cc3)c(C=O)c2)CC1 (stereo not shown) | ≤ 0.2 | ≤ 1 | ≤ 5 | ≤ 1 | ≤ 0.2 | ≤ 0.2 |  |  | ≤ 0.2 | ≤ 0.2 | ≤ 1 | ≤ 0.2 | ≤ 1 | ≤ 1 |  | 

Further lines, with some results ahead:

IC50 [1, 26] [µM] | IC50 [2] [µM] | IC50 [5] [µM] | IC50 [7] [µM] | IC50 [9] [µM] | IC50 [10] [µM] | IC50 [14] [µM] | IC50 [15] [µM] | SMILES | IC50 [3] [µM] | IC50 [4] [µM] | IC50 [6] [µM] | IC50 [8] [µM] | IC50 [11] [µM] | IC50 [12] [µM] | IC50 [13] [µM] | other results
≤ 0.2 | ≤ 5 | ≤ 5 | ≤ 0.2 | ≤ 0.2 | ≤ 0.2 |  |  | COC1CCC(c2ccc(Oc3ccc(C(=O)N4CCN(Cc5ccc(OC(F)(F)F)cc5)CC4)cc3)c(C=O)c2)CC1 (stereo not shown) | ≤ 0.2 | ≤ 0.2 | ≤ 5 | ≤ 0.2 | ≤ 0.2 | ≤ 0.2 |  | 
≤ 0.2 |  |  |  | ≤ 5 |  | ≤ 20 | ≤ 5 | O=Cc1cc(C2CCC3(CC2)OCCO3)ccc1Oc1ccc(C(=O)N2CCN(Cc3ccccc3)CC2)cc1 |  |  |  |  |  |  | ≤ 1 | IC50 ([1]; read-out: Activity (MDA): antiproliferative activity on MDA-MB-231 cells, IC50 category, MDA-MB-231 cells cultivated in glucose-free Leibovitz's L-15 medium): < 1 µM; IC50 [16]: < 5 µM
≤ 0.2 |  |  |  |  | ≤ 0.2 |  |  | O=C(c1ccc(Oc2ccc(C3CCC4(CC3)OCCO4)cc2CO)cc1)N1CCN(Cc2ccc(S(F)(F)(F)(F)F)cc2)CC1 |  | ≤ 0.2 |  |  | ≤ 0.2 |  |  | IC50 [17]: ≤ 5 µM; IC50 [18]: ≤ 5 µM; IC50 [19]: ≤ 5 µM; IC50 [20]: ≤ 0.2 µM; IC50 [21]: ≤ 0.2 µM; IC50 [22]: ≤ 20 µM; IC50 [23]: ≤ 5 µM; IC50 [24]: ≤ 0.2 µM; IC50 [25]: ≤ 0.2 µM
